{
  "source": "patent US6423347B1",
  "about": "“Method and product using sturgeon notochord for alleviating the symptoms of arthritis” (Abbott Laboratories, priority 1997, dated 2002)",
  "test_system": "collagen-induced arthritis (CIA)",
  "assay_type": "in vivo",
  "conditions": "groups of 20 mice; 300 μg protein dose oral on Days −10, −7, −5 and −2",
  "protocol": "These Examples were conducted to investigate the effectiveness of sturgeon notochord in protecting mice from collagen-induced arthritis (CIA). Female DBA/1 Lac J strain mice, approximately 6-8 weeks of age, were obtained from Jackson Laboratories of Bar Harbor, Maine. Three groups of 20 mice per group were acclimated to their surroundings for 7 days. A standard mouse chow (Purina Certified Mouse Chow #5015; 11% by wt. fat; collagen-free) and water were provided for ad libitum consumption to all animals.\nOn Days −10, −7, −5 and −2 prior to immunization, mice were sensitized by one of three test compositions; bovine serum albumin (BSA, a tolerogenically inert protein in CIA), cod skin gelatin, or sturgeon notochord. Bovine serum albumin (a protein derived from non-connective tissue) and cod skin gelatin (a protein derived from another connective tissue containing Type I collagen of a fish) served as negative controls. Sturgeon notochord was obtained from farm raised sturgeon and pulverized in liquid nitrogen. […]\nMice were inspected daily for the onset of CIA, characterized by erythema and edema. Limbs were clinically evaluated and graded on a scale of 0 to 3 (0, absence of arthritis; 1, mild swelling and erythema; 2, swelling and erythema of both tarsus and ankle; 3, ankylosis and bone deformity). […]",
  "data": [
    {"substance": "bovine serum albumin [BSA]", "values": [
      {"measurement": "# of animals dead", "result": 2}
    ]}
  ]
}
